Our source for the activation values is PubChem BioAssay AID1276 (Columbia University Molecular Screening Center, 2008).

Only a part is listed here, and it is no random draw. The source made the active and inactive calls.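 The calls were made as follows: active = activation above a set limit, based on mean plus 3 SD of controls (cut at about 140% in these data); inconclusive = one replicate above the limit, the other below; inactive = the rest.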

This test can be described thus: activators of APP 5'UTR luciferase reporter, primary screen, SH-SY5Y cells (AID 1276). As to conditions: SH-SY5Y APP 5'UTR luciferase reporter, luminescence; at 2 µM; active compounds read high; zero percent = DMSO vehicle wells. For orientation: Reporter assays use an easily measured gene product as a stand-in for the process of interest.
Turning to `O=[N+]([O-])c1ncn(CCn2ncnc2[N+](=O)[O-])n1`, the activation is inactive: -20.7%.

Turning to `CN(C)C(=O)OCCc1n(C)cc[n+]1C`, the activation is inactive: 6.47%.

On to `CC1CCN(C(=O)Oc2c(Cl)cc(Cl)c3cccnc23)CC1`, for which the activation is inactive: 6.58%.

As to `CCN(/C(=N/P(=O)(N1CCOCC1)N1CCOCC1)N1CCOCC1)c1ccc(OC)cc1`, the activation is inactive: -2.92%.

For the compound `O=[N+]([O-])c1cccc2n[nH]nc12`, the activation is inactive: 5.45%.

For the compound `CC(=O)N1C2C3N(C(C)=O)C1C1N(C(C)=O)C(C(N1C(C)=O)N3C(C)=O)N2C(C)=O`, the activation is inactive: 8.84%.

In the case of `Cc1ccc(NP(=O)(Oc2ccccc2)Oc2ccccc2)nc1`, the activation is inactive: 14.2%.

Consider `CCc1nc2c(n1)c1c(non1O)c1c2no[n+]1[O-]`, for which the activation is inactive: -3.72%.

For the compound `O=[N+]([O-])c1cc([N+](=O)[O-])c(CCNc2ccccc2)c([N+](=O)[O-])c1`, the activation was inactive: -19.1%.

For the compound `COc1ccc(C2=NCC(CBr)S2)cc1` (centres undefined), the activation is inactive: 10.2%.

For `CC(C)CC(=O)NC(Sc1ccc(Cl)cc1)C(Cl)(Cl)Cl` (centres undefined), the activation is inactive: 10.5%.

With `Oc1ccccc1CNc1ccccn1`, the activation was inactive: 9.96%.

As to `Cc1c2non([O-])c-2c(C)[n+](=O)[n+]1[O-]`, the activation was inactive: -2.5%.

For `O=C(NC(Sc1ccncn1)C(Cl)(Cl)Cl)c1ccccc1` (centres undefined), the activation was inactive: 20.7%.

With `COc1ccccc1OP(=O)(Nc1ccc(C)cn1)Oc1ccccc1OC`, the activation was inactive: -6.98%.

Consider `Clc1ccc(Cl)c(NC2=NCC(CBr)S2)c1` (centres undefined), for which the activation is inactive: 4.38%.

Consider `CN1CCCC(OC(=O)C(c2ccccc2)c2ccccc2)C1` (centres undefined), for which the activation was inactive: -8.01%.

For the compound `NC(=O)c1cc([N+](=O)[O-])cc([N+](=O)[O-])c1N`, the activation is inactive: 9.56%.

Turning to `Cc1ccc(N/C(=N/P(=O)(N2CCOCC2)N2CCOCC2)N2CCOCC2)cc1`, the activation was inactive: -3.63%.

As for `CCN(N=Nc1nonc1N)c1nonc1N`, the activation is inactive: -4.24%.

`CCOP(=O)(Nc1ccccc1)OCC`: the activation is inactive: 4.34%.

Take `Cc1cc(SC(NC(=O)c2ccc(F)cc2)C(Cl)(Cl)Cl)ncn1` (centres undefined): the activation was inactive: 5.61%.

Turning to `O=c1c2cc([N+](=O)[O-])ccc2[nH]c2c([N+](=O)[O-])cc([N+](=O)[O-])cc12`, the activation was inactive: -80.5%.

With `COC(=O)c1cc2c(s1)N=C(c1ccccc1)N(C)P2(=O)N1CCOCC1` (centres undefined), the activation was inactive: -8.55%.

Turning to `Cc1ccc(OP(=O)(Nc2ccccn2)Oc2ccc(C)cc2)cc1`, the activation was inactive: 24.1%.

Consider `CC(=O)NC(SC(=S)N(CC(C)C)CC(C)C)C(Cl)(Cl)Cl` (centres undefined), for which the activation was inactive: 3.25%.

`CCC(=O)N1C2C3N(C(=O)CC)C1C1N(C(=O)CC)C(C(N1C(=O)CC)N3C(=O)CC)N2C(=O)CC`: the activation was inactive: -0.91%.

As for `CCNC(=S)/N=C(\N)N[N+](=O)[O-]`, the activation was inactive: 5.37%.

Consider `O=C(NC1CCS(=O)(=O)C1)NP(=S)(Oc1ccccc1)Oc1ccccc1` (centres undefined), for which the activation was inactive: -22.4%.

Consider `c1ccc(-c2nn[nH]n2)c(-c2nn[nH]n2)c1`, for which the activation is inactive: 22.6%.

As for `CCOC(=O)NC(Sc1ccccc1)C(Cl)(Cl)Cl` (centres undefined), the activation is inactive: -8.91%.

For `CC(=O)Nc1ccc(Oc2c([N+](=O)[O-])cc([N+](=O)[O-])cc2[N+](=O)[O-])cc1`, the activation was inactive: 7.95%.

As for `CC(C)(C)C(=O)NC(Sc1ccccc1)C(Cl)(Cl)Cl` (centres undefined), the activation was inactive: -5.06%.

Consider `O=P1(Nc2nc3ccc(Cl)cc3s2)COc2ccccc2O1` (centres undefined), for which the activation is inactive: 4.33%.

As for `CCOc1ccc(C2=NCC(CBr)S2)cc1` (centres undefined), the activation is inactive: -29.6%.

Take `c1nnnn1CCn1cnnn1`: the activation was inactive: 7.22%.

As to `CC(C)C(=O)NC(Sc1ccccc1)C(Cl)(Cl)Cl` (centres undefined), the activation is inactive: 10.3%.

`O=P(Nc1nccs1)(c1ccccc1)c1ccccc1`: the activation is inactive: 6.82%.

Consider `C(Cc1nn[nH]n1)Cc1nn[nH]n1`, for which the activation is inactive: 20.9%.

With `O=C(OC1CN2CCC1CC2)c1cccc(Cl)c1` (centres undefined), the activation is inactive: 0.59%.

`CC(=O)NC(SC(=S)N(C)C)C(Cl)(Cl)Cl` (centres undefined): the activation is inactive: 0.56%.

On to `O=P(Nc1ccccn1)(c1ccc(Br)cc1)c1ccc(Br)cc1`, for which the activation is inactive: -11.7%.

Turning to `O=P1(Nc2ccc(Br)cn2)COc2ccccc2OC1`, the activation was inactive: 10.9%.

In the case of `Cc1ccc(OCC(=O)OC2CN3CCC2CC3)cc1` (centres undefined), the activation was inactive: 7.05%.

With `O=P1(Nc2ncccn2)COc2ccccc2OC1`, the activation was inactive: -1.61%.

On to `CN(C)C1(CNC(=O)c2ccc(S(C)(=O)=O)cc2)CCCCC1`, for which the activation was inactive: 13.6%.

Turning to `Cc1nn(-c2ccccc2)c2c1P(=O)(N1CCOCC1)N(C)C(c1ccccc1)=N2` (centres undefined), the activation is inactive: -1.51%.

Regarding `CC1CCC(C(C)C)C(OP(=O)(Nc2ccccn2)c2ccccc2)C1` (centres undefined), the activation was inactive: -11.1%.

For the compound `CC1(CBr)Cn2c(nc3ccccc3c2=O)S1` (centres undefined), the activation was inactive: -15.3%.

For `CC(C)/C=N\N=C(\N)N[N+](=O)[O-]`, the activation is inactive: -10.9%.

Regarding `CN(C(=O)Cc1ccc(Cl)c(Cl)c1)[C@@H]1CCCC[C@H]1N1CCCC1`, the activation was inactive: -1.71%.

For `Clc1n[nH]nc1-c1nn[nH][15n]1`, the activation is inactive: -2.38%.

In the case of `O=P1(Nc2ccccn2)COc2ccccc2OC1`, the activation was inactive: 13.5%.

On to `COc1cc(C2NCCC3(OCCO3)C2(C)C)cc(OC)c1OC` (centres undefined), for which the activation is inactive: -4.42%.

For the compound `CCOP(=O)(Nc1cccc2ccccc12)OCC`, the activation is inactive: 2.88%.

Turning to `Cc1ccc(NCCc2c([N+](=O)[O-])cc([N+](=O)[O-])cc2[N+](=O)[O-])cc1`, the activation is inactive: -17.5%.

Turning to `Cc1cccc(OCC(=O)OC2CN3CCC2CC3)c1` (centres undefined), the activation is inactive: 2.2%.

Regarding `COc1cc(C(=O)NCC2(N3CCOCC3)CCCCC2)cc(Cl)c1OC(C)C`, the activation is inactive: 2.94%.

For the compound `O=[N+]([O-])c1ccc2c(c1)nnn2O`, the activation is inactive: -3.01%.

Consider `CCOP1(=S)c2c(C)nn(CCC#N)c2N=C(c2ccc(F)cc2)N1C` (centres undefined), for which the activation was inactive: 3.45%.

As for `CCOP1(=S)c2c(C)nn(CCC#N)c2N=C(c2ccccc2F)N1C` (centres undefined), the activation was inactive: -1.67%.

On to `O=P(Nc1nccs1)(c1ccccc1)c1nc2ccccc2s1` (centres undefined), for which the activation was inactive: -26.1%.

`O=P(Nc1nccs1)(Oc1ccccc1)Oc1ccccc1`: the activation is inactive: 9.03%.

For the compound `CCN(CC)C(=S)SC(NC=O)C(Cl)(Cl)Cl` (centres undefined), the activation is inactive: -1.15%.

Turning to `CC(C)NC(=O)NP(=O)(Oc1ccccc1)Oc1ccccc1`, the activation was inactive: 7.36%.

`O=[N+]([O-])c1cc([N+](=O)[O-])c(-c2ccn[nH]2)s1`: the activation was inactive: -7.75%.

Consider `ClCCSc1nnc(-c2cccnc2)o1`, for which the activation is inactive: 5.76%.

Regarding `Cc1ccc2nc3c(c(C)c2c1)CC(C(Cl)Cl)S3` (centres undefined), the activation is inactive: 21%.

On to `COc1ccc(N/C(=N/P(=O)(N2CCOCC2)N2CCOCC2)N2CCOCC2)cc1`, for which the activation is inactive: 9%.

As to `COc1ccc2nc(NP(=O)(c3ccccc3)c3ccccc3)sc2c1`, the activation is inactive: 26.9%.

In the case of `O=C(OC1CN2CCC1CC2)C12CC3CC(CC(C3)C1)C2` (centres undefined), the activation is inactive: -7.49%.

As to `Cc1cc(=O)[nH]c(N[N+](=O)[O-])n1`, the activation is inactive: 2.32%.

With `Cc1c2c(nc3ccccc13)SC(C(Cl)Cl)C2` (centres undefined), the activation was inactive: -10.2%.

For `CCC(C)N(CC(C)C)C(=S)SC(NC(C)=O)C(Cl)(Cl)Cl` (centres undefined), the activation is inactive: 3.47%.

Regarding `O=C(COc1ccccc1)OC1CN2CCC1CC2` (centres undefined), the activation is inactive: -7.12%.

On to `COP1(=S)c2c(C)nn(CCC#N)c2N=C(c2ccc(F)cc2)N1C` (centres undefined), for which the activation was inactive: -19.2%.

As to `O=P(Nc1ccccn1)(c1cccc2ccccc12)c1cccc2ccccc12`, the activation was inactive: 14.7%.

On to `Cc1cc(SC(NC=O)C(Cl)(Cl)Cl)ncn1` (centres undefined), for which the activation is inactive: 20.5%.

`Cc1cc(SC(NC(=O)c2ccccc2)C(Cl)(Cl)Cl)nc(C(C)C)n1` (centres undefined): the activation is inactive: -7.44%.
